In ChEMBL document CHEMBL5214926, “Recent contribution of medicinally active 2-aminothiophenes: A privileged scaffold for drug discovery” (Eur J Med Chem, 2022):

Experiment: Inhibition of CaCC (unknown origin) current potentiation
Parameters: species or system Homo sapiens

In the case of `O=C(O)c1c(NC2=NCC(CBr)S2)sc2c1CCCC2` (stereo unspecified), the IC50 is reported as 19 µM.
